Target: GABA-A receptor; anion channel

## CCOC(=O)c1cc2c(cn1)[nH]c1ccccc12
  pIC50: 8.3

Source: ChEMBL document CHEMBL1130277, “Three-dimensional quantitative structure-activity relationships from molecular similarity matrices and genetic neural networks. 2. Applications” (J Med Chem, 1997)
